Biological target: Vascular endothelial growth factor receptor 3 (Homo sapiens, UniProt P35916)

Amino acid sequences for entries named in this document (tags omitted).
UniProt P35916, whole entry: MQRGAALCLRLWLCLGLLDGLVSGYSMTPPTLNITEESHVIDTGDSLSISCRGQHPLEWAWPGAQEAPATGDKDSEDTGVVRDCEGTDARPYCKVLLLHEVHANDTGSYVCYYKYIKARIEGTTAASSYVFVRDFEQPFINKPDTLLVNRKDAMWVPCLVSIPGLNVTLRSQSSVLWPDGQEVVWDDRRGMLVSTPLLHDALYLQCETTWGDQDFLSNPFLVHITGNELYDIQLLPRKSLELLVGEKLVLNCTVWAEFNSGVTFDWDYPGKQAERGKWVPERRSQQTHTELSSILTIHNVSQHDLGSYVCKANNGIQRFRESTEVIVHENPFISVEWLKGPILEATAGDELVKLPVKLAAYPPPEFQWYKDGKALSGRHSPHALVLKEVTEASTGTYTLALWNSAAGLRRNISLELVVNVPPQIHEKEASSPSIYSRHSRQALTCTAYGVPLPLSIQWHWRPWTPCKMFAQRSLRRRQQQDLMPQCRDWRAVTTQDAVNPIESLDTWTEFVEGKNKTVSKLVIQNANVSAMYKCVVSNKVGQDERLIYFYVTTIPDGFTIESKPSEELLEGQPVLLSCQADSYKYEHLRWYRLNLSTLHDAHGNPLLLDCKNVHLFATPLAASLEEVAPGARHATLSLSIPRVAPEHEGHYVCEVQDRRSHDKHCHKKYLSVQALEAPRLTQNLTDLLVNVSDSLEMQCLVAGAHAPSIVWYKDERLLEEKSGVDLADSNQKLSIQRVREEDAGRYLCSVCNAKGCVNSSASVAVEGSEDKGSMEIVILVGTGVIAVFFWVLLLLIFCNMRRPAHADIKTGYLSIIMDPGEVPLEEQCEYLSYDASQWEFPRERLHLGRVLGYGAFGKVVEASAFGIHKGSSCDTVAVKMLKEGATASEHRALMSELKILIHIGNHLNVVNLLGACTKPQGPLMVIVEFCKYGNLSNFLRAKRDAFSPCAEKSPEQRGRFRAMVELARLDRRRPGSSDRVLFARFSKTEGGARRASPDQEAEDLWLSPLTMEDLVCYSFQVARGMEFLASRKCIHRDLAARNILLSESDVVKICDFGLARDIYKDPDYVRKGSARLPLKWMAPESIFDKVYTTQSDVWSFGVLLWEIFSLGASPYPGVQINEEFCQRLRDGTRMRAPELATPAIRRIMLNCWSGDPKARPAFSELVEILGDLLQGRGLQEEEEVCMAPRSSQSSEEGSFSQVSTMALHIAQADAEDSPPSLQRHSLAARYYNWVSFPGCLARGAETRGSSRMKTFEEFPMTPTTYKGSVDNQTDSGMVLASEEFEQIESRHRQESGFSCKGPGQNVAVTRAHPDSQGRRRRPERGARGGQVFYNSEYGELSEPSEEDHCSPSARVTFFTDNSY

COc1cc2nccc(Oc3ccc(NC(=O)Nc4cc(C)on4)c(Cl)c3)c2cc1OC [TIVOZANIB]
IC50: 15 nM
